# According to PubChem BioAssay AID454 (Sanford-Burnham Center for Chemical Genomics, 2006):
# The entries are a selection whose mix differs from that of the whole data set. Some tests of the compounds listed are not included; inactive here does not mean inactive elsewhere. The source made the active and inactive calls.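 How the source made its calls: active means compound among top-ranked inhibitors of TNF-induced VCAM-1 adhesion protein staining, with the hit upheld by image or statistical review; inactive means the rest, including hits rejected on review.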
# Test: inhibitors of TNFa-induced VCAM-1 surface display, cell-based, plate reader, pooled HUVEC, TNFa stimulus (AID 454)
# Settings: HUVEC TNFa-induced VCAM-1 surface immunofluorescence
row,Compound,outcome
1,O=C(OC1CN2CCC1CC2)C(CO)(c1ccccc1)c1ccccc1 (stereo unspecified),inactive
